Assays:
PNH patients = PNH patients receiving eculizumab treatment; cited from earlier work
patients with PNH [1] = details: in vivo
patients with PNH [2] = assay: PEGASUS safety, 16-week randomized controlled period
[3] = 16-week randomized, controlled treatment period

eculizumab: monoclonal anti-C5 antibody that inhibits the formation of the MAC [reference compound]
patients classified as complete responders (transfusion independence and normal hemoglobin levels) (PNH patients): roughly 13%
patients classified as partial responders (decreased transfusion needs and reduced LDH) (PNH patients): 53%
poor responders (unchanged transfusion needs and persistent symptoms) (PNH patients): 33%
All Infections (patients with PNH [1]): 9 (23.1) n(%)
Sepsis (patients with PNH [1]): 0 n(%)
Abdominal Pain (adverse event) (patients with PNH [2]; 16-week randomized period): 4 (10.3) n(%)
Any TEAE (patients with PNH [2]; 16-week randomized period): 34 (87.2) n(%)
Back Pain (adverse event) (patients with PNH [2]; 16-week randomized period): 4 (10.3) n(%)
Discontinuations due to AE (patients with PNH [2]; 16-week randomized period): 0 n(%)
Dizziness (adverse event) (patients with PNH [2]; 16-week randomized period): 4 (10.3) n(%)
Fatigue (adverse event) (patients with PNH [2]; 16-week randomized period): 6 (15.4) n(%)
Headache (adverse event) (patients with PNH [2]; 16-week randomized period): 9 (23.1) n(%)
Hemolysis (adverse event) (patients with PNH [2]; 16-week randomized period): 9 (23.1) n(%)
Meningitis (patients with PNH [2]; 16-week randomized period): 0 n(%)
cases of meningitis (patients with PNH [2]; 16-week randomized period): No cases
deaths (patients with PNH [2]; 16-week randomized period): no deaths
injection site reactions (patients with PNH [2]; 16-week randomized period): 1 (2.6) n(%)
diarrhea (patients with PNH [2]; [3]): 2.6%
injection site reactions (patients with PNH [2]; [3]): 2.6%

Source: patent US20230076527A1, “TREATMENT OF PAROXYSMAL NOCTURNAL HEMOGLOBINURIA” (Apellis Pharmaceuticals, Inc., priority 2020, published 2023)
